Assay results: US9604931B2, “Nuclear receptor binding agents” (GTx, Inc., priority 2007, dated 2017)

Chains of the proteins cited; added tags and fusions are not shown.
UniProt P03372, whole entry, looked up: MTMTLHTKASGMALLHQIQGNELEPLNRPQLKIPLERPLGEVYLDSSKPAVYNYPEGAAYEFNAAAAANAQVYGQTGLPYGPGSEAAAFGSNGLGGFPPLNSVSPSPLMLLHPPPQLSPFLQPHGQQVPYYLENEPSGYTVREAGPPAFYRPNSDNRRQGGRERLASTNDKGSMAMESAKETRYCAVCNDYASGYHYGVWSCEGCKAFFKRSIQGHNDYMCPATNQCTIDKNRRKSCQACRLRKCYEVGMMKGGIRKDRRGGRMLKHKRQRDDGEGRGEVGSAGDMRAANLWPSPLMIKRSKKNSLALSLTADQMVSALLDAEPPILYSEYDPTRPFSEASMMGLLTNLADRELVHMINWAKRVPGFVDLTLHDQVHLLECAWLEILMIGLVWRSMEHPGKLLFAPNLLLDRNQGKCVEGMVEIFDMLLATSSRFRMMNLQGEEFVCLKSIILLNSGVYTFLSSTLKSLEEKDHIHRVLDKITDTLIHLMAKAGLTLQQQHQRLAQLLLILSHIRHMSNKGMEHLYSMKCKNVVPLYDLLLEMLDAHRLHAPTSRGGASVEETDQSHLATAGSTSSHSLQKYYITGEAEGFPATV
UniProt Q92731, whole entry, looked up: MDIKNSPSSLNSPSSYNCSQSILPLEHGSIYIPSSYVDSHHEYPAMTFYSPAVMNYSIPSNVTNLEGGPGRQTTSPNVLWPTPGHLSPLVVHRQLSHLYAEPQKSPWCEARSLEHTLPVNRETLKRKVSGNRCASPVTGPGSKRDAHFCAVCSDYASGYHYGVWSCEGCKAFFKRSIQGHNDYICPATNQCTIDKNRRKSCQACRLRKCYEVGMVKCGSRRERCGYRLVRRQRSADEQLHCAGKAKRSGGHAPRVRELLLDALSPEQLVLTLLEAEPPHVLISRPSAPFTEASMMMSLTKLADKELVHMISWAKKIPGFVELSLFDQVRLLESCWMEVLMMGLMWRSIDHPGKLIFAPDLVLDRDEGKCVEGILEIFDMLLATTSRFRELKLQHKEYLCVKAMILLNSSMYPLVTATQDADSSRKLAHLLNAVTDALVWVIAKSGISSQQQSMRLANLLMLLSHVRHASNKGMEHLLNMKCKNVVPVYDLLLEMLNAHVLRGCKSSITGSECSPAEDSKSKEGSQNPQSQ

Key:
[1] = biological target: ERα ligand binding domain (Homo sapiens, UniProt P03372); conditions: read-out: ER-α binding constant (Ki)
[2] = biological target: ERβ ligand binding domain (Homo sapiens, UniProt Q92731)

SMILES | Ki [1] [nM] | Ki Ratio (ER-α/ER-β) [2]
O=c1c2ccc(O)cc2c(-c2ccccc2)cn1-c1ccc(O)cc1 [15a, 6-hydroxy-2-(4-hydroxyphenyl)-4-phenylisoquinolin-1(2H)-one] | 1780 | –
COc1ccc(-c2cn(-c3ccc(O)cc3)c(=O)c3c(O)cc(O)cc23)cc1 [15g, 6,8-dihydroxy-2-(4-hydroxyphenyl)-4-(4-methoxyphenyl)isoquinolin-1(2H)-one] | 70 | 145.8
